Assay results taken from US10849898B2, “Treatment of relapsed and/or refractory solid tumors and non-Hodgkin's lymphomas” (CELGENE QUANTICEL RESEARCH, INC., priority 2016, dated 2020).

Experiments:
[1] = mouse, in vivo
[2] = 4-week oral toxicity study with 4-week recovery in mice (with toxicokinetics); details: 45 mg base/kg/dose QD×5/week; TK subgroup; 4 males and 1 female

In the case of `COc1ccc(-c2c(-c3ccc(C#N)c(F)c3)nc(N3CCC(N)CC3)n(C)c2=O)cc1F` [Compound A, 4-[2-(4-amino-piperidin-1-yl)-5-(3-fluoro-4-methoxy-phenyl)-1-methyl-6-oxo-1,6-dihydro-pyrimidin-4-yl]-2-fluoro-benzonitrile], the “reversibility of findings after 4-week treatment-free period” value [1] is reported as “partial to complete reversibility” and the “animals sacrificed in moribund condition” value [2] is reported as “Five animals”.
